In PubChem BioAssay AID2520 (Sanford-Burnham Center for Chemical Genomics, 2010):
This is a selection; strong and weak results do not stand in their true shares. Active and inactive are the calls of the source.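 The calls were made as follows: active = activation more than six SD over the plate average, tested at 20 µM; inactive = the rest.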

Sequences of proteins named here, by UniProt entry; tags and fusion partners are left off. A change or cut given only in a name is not applied to a line headed by its entry.
UniProt P35414: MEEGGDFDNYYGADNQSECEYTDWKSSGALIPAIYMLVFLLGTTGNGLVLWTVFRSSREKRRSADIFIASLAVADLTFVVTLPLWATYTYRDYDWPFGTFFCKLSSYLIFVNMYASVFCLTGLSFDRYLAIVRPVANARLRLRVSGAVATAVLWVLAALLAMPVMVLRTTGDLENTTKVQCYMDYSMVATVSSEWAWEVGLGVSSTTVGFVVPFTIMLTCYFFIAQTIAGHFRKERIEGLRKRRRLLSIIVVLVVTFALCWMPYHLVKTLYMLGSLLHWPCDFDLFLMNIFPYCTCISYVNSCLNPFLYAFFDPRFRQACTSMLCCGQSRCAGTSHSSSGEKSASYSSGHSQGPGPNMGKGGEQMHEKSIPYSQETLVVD

Biological target: Apelin receptor (Homo sapiens) (UniProt P35414)
Experiment: agonists of human apelin receptor APJ, primary screen, CHO-K1 cells, PathHunter beta-arrestin, luminescence (AID 2520)
Conditions: at 20 µM, hits give high values, 0% DMSO wells, 100% apelin
In short: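 Assay system: CHO-K1 cells stably expressing ProLink-tagged human APJ and arrestin–beta-gal acceptor. Compound dosing: 20 µM single point, 1% DMSO. Times: 16-18 h seeding, 90 min dark compound exposure, 60 min detection. Detection: beta-gal luminescence. Evaluation: APJ–arrestin association signal. Controls: negative DMSO alone, positive Apelin-13 at 10 nM.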

Row | Structure (SMILES) | activation
1 | O=C(/C=C/c1ccccc1)OC1CN2CCC1CC2 (stereo not drawn) | inactive: -1.6%
2 | O=P1(Nc2ncccn2)COc2ccccc2OC1 | inactive: 6.79%
3 | Nc1cccc([As](=O)(O)c2ccccc2)c1 | inactive: -5.1%
4 | O=P1(Nc2ccc(Br)cn2)COc2ccccc2OC1 | inactive: -2.52%
5 | NS(=O)(=O)c1cccc(NC(=O)COC(=O)C(O)(c2ccccc2)c2ccccc2)c1 | inactive: -2%
6 | O=[As](O)(c1cccs1)c1cccs1 | inactive: -3.24%
7 | Cc1ccc(OCC(=O)OC2CN3CCC2CC3)cc1 (stereo not drawn) | inactive: 0.601%
8 | O=P1(Nc2ccccn2)COc2ccccc2OC1 | inactive: -0.62%
9 | CCC1=CC2Cc3nc4ccc(Cl)cc4c(N)c3C(C1)C2 (stereo not drawn) | inactive: 16.9%
10 | CCOP(=O)(NC(=NC(C)c1ccccc1)NC(C)c1ccccc1)OCC (stereo not drawn) | inactive: -0.963%
11 | CN(CCCl)Cc1cc(Cl)c(NC2=NCCN2)c(Cl)c1 | inactive: -6.02%
12 | CCOP(=O)(Nc1ccc(C)cn1)OCC | inactive: -3%
13 | Clc1n[nH]nc1-c1nn[nH][15n]1 | inactive: -3.73%
14 | CC(C)(C)C(=O)NC(Sc1ncccn1)C(Cl)(Cl)Cl (stereo not drawn) | inactive: -0.628%
15 | COc1ccccc1CNC(=O)COC(=O)C(O)(c1ccccc1)c1ccccc1 | inactive: -4.58%
16 | CC(C)/C=N\N=C(\N)N[N+](=O)[O-] | inactive: -1.17%
17 | CN(C(=O)Cc1ccc(Cl)c(Cl)c1)[C@@H]1CCCC[C@H]1N1CCCC1 | inactive: -5.02%
18 | O=[As](O)(c1ccccc1Br)c1ccccc1Br | inactive: 1.6%
19 | CC1(CBr)Cn2c(nc3ccccc3c2=O)S1 (stereo not drawn) | inactive: -1.65%
20 | COP1(=S)c2c(C)nn(CCC#N)c2N=C(c2ccc(F)cc2)N1C (stereo not drawn) | inactive: 1.12%
21 | O=C(COc1ccccc1)OC1CN2CCC1CC2 (stereo not drawn) | inactive: 3.9%
22 | O=C(Nc1ccncc1[N+](=O)[O-])c1ccc([N+](=O)[O-])cc1[N+](=O)[O-] | inactive: 7.76%
23 | O=C(OC1CN2CCC1CC2)c1cccc([N+](=O)[O-])c1 (stereo not drawn) | inactive: -2.18%
24 | CCOC(=O)c1ccc(NC(=O)C(C)(CCl)SC)cc1 (stereo not drawn) | inactive: -3.2%

Row | Structure (SMILES) | activation
25 | CCC(C)N(CC(C)C)C(=S)SC(NC(C)=O)C(Cl)(Cl)Cl (stereo not drawn) | inactive: -5.93%
26 | CCOC(=O)Nc1ccc([As](=O)(O)O)c(O)c1 | inactive: -2.73%
27 | CCCCOc1ccc(C(=O)NCC2(N3CCCCC3)CCCCC2)cc1OC | inactive: -4.28%
28 | Cc1cc(SC(NC(=O)c2ccccc2)C(Cl)(Cl)Cl)nc(C(C)C)n1 (stereo not drawn) | inactive: -2.65%
29 | CCOC(=O)Nc1cccc([As](=O)(O)O)c1 | inactive: -1.46%
30 | O=P(Nc1ccccn1)(c1cccc2ccccc12)c1cccc2ccccc12 | inactive: 2.39%
31 | Cc1cc(SC(NC=O)C(Cl)(Cl)Cl)ncn1 (stereo not drawn) | inactive: 0.315%
32 | O=[As](O)(c1ccc(O)cc1)c1ccccc1O | inactive: -2.01%
33 | C[As](=O)(O)c1cccc(C(=O)O)c1 | inactive: -1.75%
34 | COc1cc(C(=O)NCC2(N3CCOCC3)CCCCC2)ccc1OCC(C)C | inactive: -3.33%
35 | Cc1ccc(OP(=O)(Nc2ccc([N+](=O)[O-])cn2)Oc2ccc(C)cc2)cc1 | inactive: -0.781%
36 | Cc1ccc2nc3c(c(C)c2c1)CC(C(Cl)Cl)S3 (stereo not drawn) | inactive: -3.03%
37 | ClCCSc1nnc(-c2cccnc2)o1 | inactive: 3.66%
38 | CC(C)c1ccc(OP(=O)(Nc2ccccn2)Oc2ccccc2F)cc1 (stereo not drawn) | inactive: 0.67%
39 | O=C(OC1CN2CCC1CC2)c1cccc2[nH]cnc12 (stereo not drawn) | inactive: 3.2%
40 | CCN(CC)C(=S)SC(NC=O)C(Cl)(Cl)Cl (stereo not drawn) | inactive: -1.29%
41 | CC(C)NC(=O)NP(=O)(Oc1ccccc1)Oc1ccccc1 | inactive: -2.37%
42 | O=[N+]([O-])c1cc([N+](=O)[O-])c(-c2ccn[nH]2)s1 | inactive: 5.78%
43 | Cc1c2c(nc3ccccc13)SC(C(Cl)Cl)C2 (stereo not drawn) | inactive: -3.73%
44 | O=C(OC1CN2CCC1CC2)C12CC3CC(CC(C3)C1)C2 (stereo not drawn) | inactive: -3.24%
45 | Cc1cc(=O)[nH]c(N[N+](=O)[O-])n1 | inactive: -3.49%
46 | COc1ccc2nc(NP(=O)(c3ccccc3)c3ccccc3)sc2c1 | inactive: -2.34%
47 | COc1cc(I)ccc1[As](=O)(O)O | inactive: -2.27%
48 | COc1ccc(N/C(=N/P(=O)(N2CCOCC2)N2CCOCC2)N2CCOCC2)cc1 | inactive: 0.0507%
